Test results from patent US20240060949A1, “BIOSYSTEMS TO DETECT CHEMICAL CONTAMINANTS” (priority 2020, published 2024).

Amino acid sequences for entries named in this document (tags omitted). A change or cut given only in a name is not applied to a line headed by its entry.
UniProt P12791: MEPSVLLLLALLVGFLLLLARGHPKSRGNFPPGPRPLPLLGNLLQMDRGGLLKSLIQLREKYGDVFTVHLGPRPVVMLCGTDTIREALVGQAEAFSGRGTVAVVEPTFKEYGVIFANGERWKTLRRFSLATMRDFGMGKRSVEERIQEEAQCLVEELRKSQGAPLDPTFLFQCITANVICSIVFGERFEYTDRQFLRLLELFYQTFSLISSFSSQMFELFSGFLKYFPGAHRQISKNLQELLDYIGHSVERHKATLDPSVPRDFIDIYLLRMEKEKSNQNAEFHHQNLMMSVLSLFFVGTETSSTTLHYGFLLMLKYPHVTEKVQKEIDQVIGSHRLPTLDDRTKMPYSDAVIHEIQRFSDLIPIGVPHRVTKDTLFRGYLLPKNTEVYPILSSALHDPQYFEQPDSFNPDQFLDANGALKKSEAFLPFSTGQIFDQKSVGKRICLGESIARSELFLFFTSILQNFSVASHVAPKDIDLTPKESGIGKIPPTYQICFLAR
UniProt P08684, whole entry: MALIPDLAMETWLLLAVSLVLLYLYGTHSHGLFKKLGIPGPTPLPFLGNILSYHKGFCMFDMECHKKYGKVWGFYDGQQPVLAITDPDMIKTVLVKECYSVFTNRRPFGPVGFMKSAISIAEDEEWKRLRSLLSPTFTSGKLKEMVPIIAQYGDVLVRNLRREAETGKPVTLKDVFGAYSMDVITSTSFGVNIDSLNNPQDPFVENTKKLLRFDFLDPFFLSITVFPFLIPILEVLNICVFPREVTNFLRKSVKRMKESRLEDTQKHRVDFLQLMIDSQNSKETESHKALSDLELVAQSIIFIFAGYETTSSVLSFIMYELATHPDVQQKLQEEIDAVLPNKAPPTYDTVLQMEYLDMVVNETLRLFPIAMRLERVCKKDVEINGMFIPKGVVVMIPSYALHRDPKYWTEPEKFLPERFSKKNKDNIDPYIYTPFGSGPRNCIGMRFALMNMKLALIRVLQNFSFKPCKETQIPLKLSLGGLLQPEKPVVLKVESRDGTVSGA

Experiments:
CYP2B10 = CYP2B10 (Mus musculus, UniProt P12791)
CYP3A4 = CYP3A4 (Homo sapiens, UniProt P08684)

## Mercury
CYP2B10
  Limits of detection CYP2B10: 31.7 ng/mL
CYP3A4
  Limits of detection CYP3A4: 61.9 ng/mL
